Chains of the proteins cited; added tags and fusions are not shown.
UniProt P33535, whole entry: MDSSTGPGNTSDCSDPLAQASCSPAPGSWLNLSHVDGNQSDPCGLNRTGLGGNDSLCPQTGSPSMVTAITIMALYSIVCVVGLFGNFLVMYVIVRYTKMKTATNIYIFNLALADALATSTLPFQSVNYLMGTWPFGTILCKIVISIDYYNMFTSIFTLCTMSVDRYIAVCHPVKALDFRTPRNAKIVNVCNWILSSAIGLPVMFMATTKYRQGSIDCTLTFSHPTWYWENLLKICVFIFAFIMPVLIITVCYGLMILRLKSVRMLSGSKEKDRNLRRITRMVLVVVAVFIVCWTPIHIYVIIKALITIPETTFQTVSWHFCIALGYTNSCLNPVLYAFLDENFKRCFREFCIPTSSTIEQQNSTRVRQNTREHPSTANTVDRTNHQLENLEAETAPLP

What follows are molecules tested against Mu-type opioid receptor (Rattus norvegicus, UniProt P33535) (assay: Evaluated for inhibition of [3H]DAMGO binding from mu receptor in rat brain membranes).
Format: cell membranes
C=CCN1C[C@H](C)N(C(c2ccc(C(=O)N(CC)CC)cc2)c2cccc(O)c2)C[C@H]1C (single isomer, unassigned; (+)-1) showed an IC50 of 9.71 nM. C=CCN1CC(C)N(C(c2ccc(C(=O)N(CC)CC)cc2)c2cccc(O)c2)CC1C (racemic) gave an IC50 of 46.3 nM. Work on C=CCN1C[C@@H](C)N([C@H](c2ccc(C(=O)N(CC)CC)cc2)c2cccc(O)c2)C[C@@H]1C yielded an IC50 of 2320 nM. C=CCN1C[C@H](C)N(C(c2ccc(C(=O)N(CC)CC)cc2)c2cccc(O)c2)C[C@H]1C (single isomer, unassigned; (+)-10) was tested, and the IC50 was 426 nM. Work on C=CCN1C[C@@H](C)N([C@@H](c2ccc(C(=O)N(CC)CC)cc2)c2cccc(O)c2)C[C@@H]1C yielded an IC50 of 167 nM.

— ChEMBL document CHEMBL1127803 (J Med Chem, 1994)
